Our source for the Ki values is BindingDB's records for doi:10.1021/jm060519r (Human Biomolecular Research Institute, 2006).

This experiment concerns the target T1, Cytochrome P450 2A6 (Homo sapiens, UniProt P11509).
T1 sequence (P11509 whole entry): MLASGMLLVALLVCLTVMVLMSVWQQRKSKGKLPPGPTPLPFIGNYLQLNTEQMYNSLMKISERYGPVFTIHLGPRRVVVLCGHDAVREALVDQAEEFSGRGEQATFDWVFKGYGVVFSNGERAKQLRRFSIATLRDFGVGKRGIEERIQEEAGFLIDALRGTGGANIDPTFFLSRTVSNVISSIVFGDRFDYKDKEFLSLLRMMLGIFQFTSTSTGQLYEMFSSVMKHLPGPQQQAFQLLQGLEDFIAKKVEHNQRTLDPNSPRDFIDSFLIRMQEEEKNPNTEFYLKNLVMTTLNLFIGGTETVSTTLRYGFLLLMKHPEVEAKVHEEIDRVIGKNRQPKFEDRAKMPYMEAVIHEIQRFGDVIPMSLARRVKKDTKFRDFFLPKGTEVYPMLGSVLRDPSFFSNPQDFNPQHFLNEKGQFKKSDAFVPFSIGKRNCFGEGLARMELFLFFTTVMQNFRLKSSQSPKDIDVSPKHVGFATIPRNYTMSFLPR
Nature of the experiment: CYP2A6 Inhibition Assay. How it is done:
To measure CYP2A6 activity, coumarin 7-hydroxylation was determined. […] The amount of product formed was obtained by interpolation from a standard curve of 7-hydroxycoumarin. The IC50 values were determined using GraphPad Prism version 3.0 and are reported as an average of three experiments. Apparent Ki values were determined from the IC50 values by employing the equation of Cheng and Prusoff.

The term Ki denotes the dissociation constant of the complex between target and ligand, obtained from inhibition or displacement. Consider `NCc1ccc(-c2cccnc2)s1` [US8609708, 31], for which the affinity corresponds to a Ki of 80 nM.
